In the test the target is FSHR (FSH receptor of CHO-FSHR cells). As to the kind of experiment: cell-based or functional assay.

Consider “bFSH-5R analog (bovine FSH with 5R substitutions K15R+K17R+E18R+K2OR+K24R in the alpha subunit) (from UniProt P04837 21-129) (ligand)”, for which the potency in cAMP-based in vitro bioassay (CHO-FSHR cells), fold against controls was in the range of 3 to 4 fold.

For the origin of these results see US20160264639A1.
